{"sequences": {"note": "Protein sequences, listed by entry. Tags and fused reporters are not part of them. Lines headed by an entry give the natural chain unless they say otherwise; changes in a name come on top.", "UniProt Q9Y5N1": "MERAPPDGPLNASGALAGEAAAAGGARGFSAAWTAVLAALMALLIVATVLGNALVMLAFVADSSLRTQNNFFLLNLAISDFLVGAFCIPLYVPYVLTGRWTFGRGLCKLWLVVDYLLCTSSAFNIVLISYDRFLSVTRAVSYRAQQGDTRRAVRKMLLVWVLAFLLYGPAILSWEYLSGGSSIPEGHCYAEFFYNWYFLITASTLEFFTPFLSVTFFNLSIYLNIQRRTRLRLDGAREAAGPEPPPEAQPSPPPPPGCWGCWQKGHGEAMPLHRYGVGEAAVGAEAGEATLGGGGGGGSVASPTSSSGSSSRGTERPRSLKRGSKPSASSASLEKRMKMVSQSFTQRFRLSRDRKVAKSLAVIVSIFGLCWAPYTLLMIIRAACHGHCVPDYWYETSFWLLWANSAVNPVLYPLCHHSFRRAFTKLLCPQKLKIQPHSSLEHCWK"}, "source": "ChEMBL document CHEMBL2029214", "about": "“Radiosynthesis and evaluation of an (18)F-labeled positron emission tomography (PET) radioligand for brain histamine subtype-3 receptors based on a nonimidazole 2-aminoethylbenzofuran chemotype” (J Med Chem, 2012)", "molecular_target": "Histamine H3 receptor (Homo sapiens, UniProt Q9Y5N1)", "assay": "Binding affinity to human recombinant H3 receptor expressed in HEK293T cells", "type": "cell-based, HEK-293T", "data": [{"smiles": "C[C@@H]1CCCN1CCc1cc2cc(C(=O)c3ccc(F)cc3)ccc2o1", "values": [{"measurement": "Ki", "result": 1.9, "unit": "nM"}]}]}
